This is an account of results in PMC4819448.

Assay [1] has as its target endogenous caspase-8 (human (endogenous in BJAB and HaCaT)) (UniProt Q14790). The assay is described as follows: affinity purification with mass spectrometry; native CD95 DISC from control (vector) HaCaT cells; label-free absolute quantification (TOP 3) by LC-MS/MS, n = 3.
For assay [2] the target is unchanged. The assay is described as follows: affinity purification with mass spectrometry; native TRAIL DISC from control (vector) BJAB cells; label-free absolute quantification (TOP 3) by LC-MS/MS, n = 3.

“endogenous c-FLIPL (from UniProt O15519 1-480) (natural protein; other documents disagree on this pair)”: the fold less c-FLIPL than caspase-8 in the DISC in assay [1] and in assay [2] was 15 fold throughout.
